# Sampled rows, rich in hits. Any-hit rate of the full collection: about 1.6%.
# PglD DTNB – blocks C. jejuni PglD acetyltransferase activity; purified PglD enzyme, DTNB colorimetric CoA detection; AID 602405; inhibition, % at 12.5 µM; 360,000 tested, 0.098% active; in the data active = inhibition above about 16%, passing the limit was not always enough
# CAL PDZ FP-1 – CAL PDZ (human) peptide binding inhibition | inhibition, % at 24.9 µM | 300,000 tested, 0.92% active | Q9HD26 | AID 602252 | purified CAL PDZ, TMR-peptide fluorescence polarization, 1 h;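 active = mean inhibition of at least 30% with at least half of replicates also reaching 30%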;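 note: 0% = DMSO neutral control and 100% = excess unlabeled competitor peptide PRC23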
# Vif imaging – blocks HIV Vif function | HEK293T cells, Vif self-association by quenched fluorescence, imaging, 24 h | inhibition, % at 7.49 µM | 340,000 tested, 0.35% active | AID 602346; in the data active = inhibition above about 50%, passing the limit was not always enough
# CAL PDZ FP-2 – human CAL PDZ-peptide interaction inhibition; Q9HD26; purified CAL PDZ, TMR-peptide fluorescence polarization, 1 h; inhibition, % at 20 µM; 330,000 tested, 0.02% active; AID 504414;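 active = highest replicate inhibition of at least 40%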;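 note: plate controls were DMSO neutral control wells for no effect and unlabeled competitor peptide control wells for full effect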
#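 Material: tagged CAL PDZ protein CerCALP, purified; buffer or medium: sodium phosphate/NaCl buffer pH 7.4 with TCEP, IgG, Thesit; also added: fluorescent TMR peptide probe; schedule: 1 h incubation at room temperature before polarization reading; technique: fluorescence polarization from S- and P-plane intensities, G-factor corrected; control set: unlabelled peptide and DMSO controls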
# UUG fidelity – modulators of yeast start codon fidelity, primary screen, whole organism, S. cerevisiae, single point, plate reader; S. cerevisiae UUG-firefly luciferase reporter, luminescence/redox ratio; activity score, % at 18.7 µM; 0.13% of 350,000 active; AID 602363, 2012;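 active = replicate mean at a twofold rise or more, about +100% in these data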;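 also: firefly luciferase made from a UUG start codon reports start codon fidelity; reporter light over untreated wells divided by growth signal over untreated wells; some hits fall short of that in this replicate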
# ARNT TACC3 PPI – disrupts binding between human ARNT and TACC3; Q9Y6A5; AlphaScreen His-ARNT PAS-B/GST-TACC3 binding, luminescence; TACC3 fragment carries E629A point mutation; inhibition, % at 9.99 µM; 390,000 tested, 0.66% active; AID 623870;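 active = mean inhibition of replicates at least 50% and at least half of replicates each reaching 50%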;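 note: 0% = complete ARNT plus TACC3 wells and 100% = ARNT alone without TACC3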
# Active calls of the source: *; · = no result given.
SMILES,PglD DTNB,CAL PDZ FP-1,Vif imaging,CAL PDZ FP-2,UUG fidelity,ARNT TACC3 PPI
CCOC(=O)Cn1c(COc2ccccc2OC)[n+](C)c2ccccc21,-4.5,·,65.6*,·,-31.9,·
CCCCCCCCCCOC(=O)Cn1c(COc2ccccc2C)[n+](C)c2ccccc21,-1.9,-5.5,2.7,-0.3,-20.7,-0.6
Cc1ncc(C(=O)O)c(C(=O)O)c1N,3.0,-0.9,61.9*,-0.8,-16.2,-6.8
COCCSc1nnc(NS(=O)(=O)c2ccc(C)cc2)s1,-2.7,3.8,-0.6,0.1,-20.0,0.8
COCCSc1nnc(NS(=O)(=O)c2ccccc2)s1,-4.1,0.8,56.4*,0.0,-6.2,-10.9
O=S(=O)(c1ccc(Cl)cc1)N1CCSC1c1ccco1 (stereo not drawn),-1.0,164.4*,5.7,13.9,-7.1,29.7
O=[N+]([O-])c1ccc(S(=O)(=O)N2CCSC2c2ccco2)cc1 (stereo not drawn),1.6,1.2,1.8,-0.9,-13.6,2.0
CC(C)Cc1cc(CNC(=O)C2CCC(=O)N(CCc3cccc(F)c3)C2)on1 (stereo not drawn),·,-2.0,-4.3,-1.9,·,0.0
CCCc1cc(CNC(=O)C2CCC(=O)N(CCc3cccc(F)c3)C2)on1 (stereo not drawn),4.2,35.4*,14.5,-1.2,6.1,-0.9
Cc1cnc(CN(C)C(=O)C2CCC(=O)N(CCc3ccccc3)C2)[nH]1 (stereo not drawn),1.2,-2.1,7.7,0.3,-8.3,1.2
O=C(NCC1CCOCC1)C1CCC(=O)N(Cc2cccc(C(F)(F)F)c2)C1 (stereo not drawn),-2.5,32.3*,4.3,-1.3,-2.0,-0.8
Cc1ccc(CCNC(=O)C2CCC(=O)N(Cc3cccc(F)c3)C2)cc1 (stereo not drawn),-3.2,59.3*,-4.3,-0.3,1.0,-6.4
Cc1cc(CN(C)C(=O)C2CCC(=O)N(CCc3ccccc3)C2)n[nH]1 (stereo not drawn),-0.6,35.3*,5.3,-1.7,-12.2,-1.9
O=C(NCCCC1CCCC1)C1CCC(=O)N(Cc2cccc(C(F)(F)F)c2)C1 (stereo not drawn),-0.1,-0.3,-5.6,-2.9,9.3,1.8
COC(=O)C1CCN(C(=O)C2CCC(=O)N(CCCc3ccccc3)C2)CC1 (stereo not drawn),-1.8,68.8*,11.1,-0.9,-11.0,-0.2

# Overlap with the part before: five entries; new compounds follow.
SMILES,PglD DTNB,CAL PDZ FP-1,Vif imaging,CAL PDZ FP-2,UUG fidelity,ARNT TACC3 PPI
O=C(NCC1CCOCC1)C1CCC(=O)N(Cc2cccc(C(F)(F)F)c2)C1 (stereo not drawn),-2.5,32.3*,4.3,-1.3,-2.0,-0.8
Cc1ccc(CCNC(=O)C2CCC(=O)N(Cc3cccc(F)c3)C2)cc1 (stereo not drawn),-3.2,59.3*,-4.3,-0.3,1.0,-6.4
Cc1cc(CN(C)C(=O)C2CCC(=O)N(CCc3ccccc3)C2)n[nH]1 (stereo not drawn),-0.6,35.3*,5.3,-1.7,-12.2,-1.9
O=C(NCCCC1CCCC1)C1CCC(=O)N(Cc2cccc(C(F)(F)F)c2)C1 (stereo not drawn),-0.1,-0.3,-5.6,-2.9,9.3,1.8
COC(=O)C1CCN(C(=O)C2CCC(=O)N(CCCc3ccccc3)C2)CC1 (stereo not drawn),-1.8,68.8*,11.1,-0.9,-11.0,-0.2
Cc1cc(CN(C)C(=O)C2CCC(=O)N(CCc3cccc(F)c3)C2)on1 (stereo not drawn),1.2,58.8*,11.6,-0.5,11.9,-9.3
CN1C(C)(C)CC(=NOC(=O)c2ccccc2)CC1(C)C,-1.1,61.7*,-22.9,-0.4,4.2,-5.5
CN(C)CCCNC(=O)[C@H]1[C@H](CO)[C@H]2Cn3c(ccc(C4=CCCC4)c3=O)[C@H]2N1CCC(F)(F)F,-0.3,·,·,·,·,-1.6
CC1(C)CC(=O)C2=C(C1)Nc1ccccc1N(C(=O)C1CC1)C2c1ccco1 (stereo not drawn),9.7,3.8,51.8*,-1.4,-5.2,24.4
CC(C)(C)c1ccc(C(=O)NNc2ncccc2-n2cccc2)cc1,-1.0,169.5*,-1.3,0.2,-1.3,2.5
COc1ccc(S(=O)(=O)N(C)CC(=O)NCCN2CCOCC2)cc1,1.4,·,-46.0,0.0,-24.3,-5.3
Cc1cc(C)c(S(=O)(=O)N(C)CC(=O)NCCN2CCOCC2)c(C)c1,0.1,31.0*,13.2,-0.5,20.2,-2.2
CCOc1ccc(/C=N/OCC(=O)Nc2cc(S(=O)(=O)N3CCOCC3)ccc2OC)cc1,3.1,46.7*,-6.3,·,-17.4,-2.6
COCC(=O)Nc1ccc2c(c1)C(=O)N(C)C[C@H](OC)[C@H](C)CN(C(=O)C1CCCC1)[C@@H](C)CO2,2.0,·,·,·,10.4,-5.1
c1ccc(-c2n[nH]c(-c3ccccn3)n2)cc1,·,·,6.8,-0.5,-6.1,57.1*
c1ccc(-c2nc(-c3ccccn3)no2)cc1,-4.5,0.1,·,-3.4,-62.2,4.1
Cc1ccc(S(=O)(=O)NCC(=O)OCC(=O)NC(=O)NC2CCCC2)cc1,·,72.5*,-4.0,0.8,·,-2.7
CC(=O)Nc1ccc(C(=O)OCC(=O)NC(=O)NC2CCCCC2)cc1,-2.0,86.4*,0.4,-1.1,-0.7,-1.0
CCC(=O)N1[C@@H]2CN(S(=O)(=O)c3ccccc3)c3ccccc3[C@@H]2[C@@H]1CO,-0.3,·,·,·,-3.5,-14.2
Cc1sc(NC(=O)Cc2ccc3c(c2)OCO3)nc1-c1ccc2c(c1)CCN2C(=O)c1ccc(F)cc1,·,-2.6,-36.6,-1.4,·,-5.5
Cc1sc(NC(=O)CN2CCCC2)nc1-c1ccc2c(c1)CCN2C(=O)c1cccc(F)c1,3.4,165.3*,-11.4,-1.8,-10.3,13.3
N#CC1CC(c2ccc([N+](=O)[O-])cc2)=NN1c1ccc([N+](=O)[O-])cc1 (stereo not drawn),0.9,·,89.0*,0.2,-13.4,6.9
O=[N+]([O-])c1cccc(C2CC(c3ccccc3)=NN2c2ccccc2)c1 (stereo not drawn),2.7,-0.5,-0.8,-1.0,-21.6,15.2
C[C@H](CO)N1C[C@H](C)[C@@H](CN(C)C(=O)Nc2ccccc2)Oc2c(NC(=O)Nc3ccc(F)cc3)cccc2C1=O,-0.5,·,·,·,11.1,-6.2
CCCNC(=O)N1C[C@@H](O)COC[C@H]2O[C@H](CC(=O)N[C@@H]3CCN(Cc4ccccc4)C3)CC[C@@H]21,0.0,·,·,·,-6.5,5.3
Cc1ccccc1NC(=O)CN1C(=O)CSc2ccccc21,2.9,37.9*,-1.5,0.3,-4.3,-8.8
CCCC(=O)Nc1ccc2c(c1)OC[C@@H](C)N(Cc1cccc(F)c1)C[C@@H](C)[C@H](OC)CN(C)C2=O,-0.4,·,·,·,-3.0,6.4
C[C@@H]1CN([C@@H](C)CO)C(=O)c2cc(NC(=O)Cn3cnnn3)ccc2O[C@@H]1CN(C)C,3.5,·,·,·,-10.0,-9.8
Cn1nc([N+](=O)[O-])nc1Sc1cccc2cccnc12,·,-1.3,·,-2.4,·,63.3*
O=[N+]([O-])c1ccc(Cl)cc1Sc1cccc2cccnc12,3.0,-2.6,-13.5,-1.2,-9.7,14.4
Cc1ccc(NC(=S)NC2CCN(Cc3ccccc3)CC2)cc1C,·,46.9*,8.8,-0.8,·,6.9
Cc1ccc(NC(=S)NC2CCN(Cc3ccccc3)CC2)cc1,·,1.1,-0.5,-0.7,·,1.7
C[C@@H]1CN([C@H](C)CO)C(=O)Cc2cc(NC(=O)c3ccncc3)ccc2O[C@H]1CN(C)C(=O)Nc1ccccc1,-6.2,·,·,·,-4.7,7.0
CNC[C@@H]1OCCCC[C@@H](C)Oc2ccc(NC(=O)NC(C)C)cc2C(=O)N([C@@H](C)CO)C[C@H]1C,-0.7,·,·,·,·,-4.8
COc1ccc(CN2C(=O)c3cccnc3C2=O)cc1S(=O)(=O)N1CC(C)CC(C)C1 (stereo not drawn),11.7,3.5,-5.1,-1.1,3.1,29.3*

# Screening data deposited in PubChem by Broad Institute.
